Screens as filed in PubChem.
PglD DTNB: C. jejuni PglD acetyltransferase inhibitors, primary screen, biochemical, DTNB colorimetric, single point; UDP-N-acetylbacillosamine N-acetyltransferase PglD (Campylobacter jejuni); purified PglD enzyme, DTNB colorimetric CoA detection; inhibition, % at 12.5 µM; 360,000 compounds, 0.098% hits; AID 602405, 2012; in the data active means inhibition above about 16%, passing the limit was not always enough; inconclusive means no clear call, values can overlap the other calls
esBAF inh: Bmi1 luciferase reporter increase in mESCs, primary screen, esBAF inhibitor project, mouse ES cells, Bmi1 luciferase knock-in, single point | 350,000 compounds, 2% hits | reporter increase, % at 12.5 µM | 24 h; 100% = twice the neutral-well signal | AID 602393, 2012; in the data active means activation above about 40%; inconclusive means no clear call, values can overlap the other calls;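 further: 0% = median of the plate's neutral control wells and 100% = double that signal; a rise in the Bmi1 reporter signal indicates esBAF inhibition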
Wnt act: Wnt/beta-catenin pathway activators, primary screen, cell-based, plate reader, single point; Wnt/beta-catenin reporter cell assay, activator; activation, % at 9.35 µM; 300,000 compounds, 1.2% hits; in the data active means activation above about 30%, passing the limit was not always enough; inconclusive means no clear call, values can overlap the other calls;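 further: 0% = neutral control wells and 100% = positive control wells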
MITF act: activators of MITF-driven TRPM1 promoter reporter, primary screen, cell-based, SK-MEL-5, luciferase, single point | 300,000 compounds, 0.75% hits | SK-MEL-5 TRPM1-promoter luciferase, 24 h; % of positive control, neutral wells = 0 | AID 588334, 2011 | activation, % at 12.5 µM;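 active means mean activation of at least 80% with every replicate also reaching 80%; inconclusive means mean reaches 80% but some replicate falls short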;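 further: 0% = neutral control wells and 100% = parthenolide positive control wells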
miR122 inh: miR-122 Renilla sensor signal increase in Huh7, primary screen, miR-122 inhibitor project, cell-based, single point, plate reader. Huh7 miR-122 Renilla luciferase sensor, 48 h; neutral wells = 0, positive control = 100. activation (reporter increase), % at 12.5 µM. 340,000 compounds, 0.3% hits. AID 602342, 2012;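 active means mean replicate activation score at least 90 and every replicate individually at or above 90; inconclusive means only one of the two criteria met; inactive means neither criterion met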;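 further: higher luciferase means less miR-122 activity so hits act as miR-122 inhibitors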
UUG fidelity: alters start codon recognition fidelity in yeast; S. cerevisiae UUG-firefly luciferase reporter, luminescence/redox ratio; activity score, % at 18.7 µM; actives 0.13% (n = 350,000); AID 602363;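 active = replicate mean at a twofold rise or more, about +100% in these data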;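 also: firefly luciferase made from a UUG start codon reports start codon fidelity; reporter light over untreated wells divided by growth signal over untreated wells; some hits fall short of that in this replicate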
* hit, by the source's call; ? = inconclusive; / = not tested or not shown; [ ] = dose if it differs, or a comment. Only some compounds are listed: those with a hit (about 2.8% of all), similar ones and a draw of the others.

SMILES	PglD DTNB	esBAF inh	Wnt act	MITF act	miR122 inh	UUG fidelity
Nc1ccc(Cc2nc3c(ccc4ccccc43)[nH]2)cc1	1.9	87.1*	12.7	42.9	/	-16.2
Cc1ccc2nc(C(O)C(O)c3nc4ccc(C)cc4[nH]3)[nH]c2c1 (stereo unspecified)	0.9	42.7*	27.4	/	6.7	-32.6
Cc1ccc2nc(Cc3ccc(N)cc3)[nH]c2c1	-8.0	43.9*	39.2*	15.6	4.3	-55.1
CCCNC(=O)C[C@@H]1CC[C@H]2[C@@H](COc3ccc(NC(=O)Nc4ccccc4F)cc3C(=O)N2C)O1	0.4	2.2	/	/	-16.7[16.7 µM]	24.0
COc1cccc(/C=N/NC(=O)C[n+]2ccccc2)c1OC	-2.0	/	/	-6.9	-3.3	-21.8
COc1cccc(/C=N/NC(=O)CN(C)S(=O)(=O)c2ccccc2)c1OC	-5.2	55.9*	13.5	41.8	/	-6.5
COc1ccc(OCc2cc(C(=O)N(C)Cc3nnc(C)o3)no2)c(Cl)c1	1.4	?	23.8	33.7	1.8	-12.5
CCN(Cc1ccncc1)C(=O)c1cc(COc2ccc(OC)cc2Cl)on1	3.1	71.9*	28.1	76.9	6.0	-17.8
CCc1ccc(CN(C)C(=O)c2cc(COc3ccc(OC)cc3Cl)on2)nc1	0.6	45.8*	16.3	57.2	/	-7.4
COc1ccc(OCc2cc(C(=O)N(C)Cc3cc(C)no3)no2)c(Cl)c1	-3.3	47.7*	4.1	46.6	2.0	5.4
CC(=O)c1cccc(OCc2cc(C(=O)N(C)Cc3cnccn3)no2)c1	0.4	/	13.0	95.8*	-4.2	-19.3
CC(=O)c1ccc(OCc2cc(C(=O)N(C)Cc3cc(C)no3)no2)cc1	-3.9	61.7*	4.4	33.2	-4.1	-8.6
Cc1ccc(CN(C)C(=O)c2cc(COc3ccc(F)cc3Cl)on2)o1	0.2	60.4*	5.9	30.1	-6.8	3.8
CC(=O)c1ccc(OCc2cc(C(=O)N(C)C(C)c3nccs3)no2)cc1 (stereo unspecified)	0.8	53.8*	-2.4	26.9	3.6	-11.4
C/C=C/c1ccc2c(c1)O[C@@H](CN(C)C(=O)C1CCOCC1)[C@@H](C)CN([C@@H](C)CO)S2(=O)=O	-1.9	0.2	/	/	-4.1[16.7 µM]	1.2
Cc1csc(SCc2nnc(-c3ccc(Cl)cc3)o2)n1	/	59.8*	/	50.4	-9.4	/
Cc1csc(SCc2nnc(-c3ccccc3Br)o2)n1	-2.9	43.6	/	66.6	/	-21.4
CCC(=O)N(C)C[C@@H]1Oc2cc(C#CC3(O)CCCC3)ccc2S(=O)(=O)N([C@H](C)CO)C[C@@H]1C	2.0	-4.6	/	/	5.9[16.7 µM]	2.2
COc1ccc(-c2cc(-c3ccc(C)cc3)n[nH]2)c(O)c1	2.7	?	55.2*	67.5	4.1	-11.4
Cc1cccc(CSc2ccc(-c3ccco3)nn2)c1	4.8	50.3*	-1.5	34.3	-1.9	-11.4
COc1ccccc1-c1ccc(SCc2ccccc2F)nn1	/	/	-2.7	24.7	/	/
Clc1ccc(CSc2ccc(-c3ccco3)nn2)cc1	/	/	12.6	65.1	/	/
Cc1nc(C)c(-c2ccc(SCc3ccccc3F)nn2)s1	-1.9	69.5*	10.2	76.5	-2.1	-5.4
Fc1ccccc1CSc1ccc(-c2ccco2)nn1	/	/	10.7	95.4*	/	/
c1ccc(CSc2ccc(-c3ccco3)nn2)cc1	/	/	51.5*	43.6	/	/

Gathered by group: the entries above with two or more sulfur atoms.
SMILES	PglD DTNB	esBAF inh	Wnt act	MITF act	miR122 inh	UUG fidelity
Cc1csc(SCc2nnc(-c3ccc(Cl)cc3)o2)n1	/	59.8*	/	50.4	-9.4	/
Cc1csc(SCc2nnc(-c3ccccc3Br)o2)n1	-2.9	43.6	/	66.6	/	-21.4
Cc1nc(C)c(-c2ccc(SCc3ccccc3F)nn2)s1	-1.9	69.5*	10.2	76.5	-2.1	-5.4

Copied from the list.
For esBAF inh, Cc1cccc(CSc2ccc(-c3ccco3)nn2)c1 reads 50.3*
For UUG fidelity, CCC(=O)N(C)C[C@@H]1Oc2cc(C#CC3(O)CCCC3)ccc2S(=O)(=O)N([C@H](C)CO)C[C@@H]1C reads 2.2
For UUG fidelity, CC(=O)c1ccc(OCc2cc(C(=O)N(C)Cc3cc(C)no3)no2)cc1 reads -8.6
For PglD DTNB, Cc1csc(SCc2nnc(-c3ccccc3Br)o2)n1 reads -2.9
For Wnt act, CCc1ccc(CN(C)C(=O)c2cc(COc3ccc(OC)cc3Cl)on2)nc1 reads 16.3

Other structures follow:
SMILES	PglD DTNB	esBAF inh	Wnt act	MITF act	miR122 inh	UUG fidelity
CN1C(=O)c2cc(NS(C)(=O)=O)ccc2OC[C@H]2O[C@@H](CC(=O)NC3CCCCC3)CC[C@@H]21	-0.5	-2.2	/	/	/	/
Cc1c(-c2ccccc2)nnn1-c1ccc(F)cc1F	-3.9	50.7*	9.9	73.1	-2.4	-14.2
Cc1c(-c2ccccc2)nnn1-c1ccc(F)c(Cl)c1	/	/	2.7	/	/	/
C[C@H](CO)N1C[C@H](C)[C@@H](CN(C)Cc2ccncc2)Oc2cc(-c3cccnc3)ccc2S1(=O)=O	-5.3	-5.1	/	/	1.0[16.7 µM]	6.6
O=C(Nc1ccccc1)OCC1CCCO1 (stereo unspecified)	1.5	35.4	0.1	35.6	3.3	-21.3
O=C(Nc1ccccc1)OCC1COC(c2ccccc2)(c2ccccc2)O1 (stereo unspecified)	0.2	/	48.8*	4.1	1.0	-23.3
C[C@H](CO)N1C[C@H](C)[C@@H](CN(C)C(=O)NC2CCCCC2)Oc2ccc(NC(=O)Nc3ccc(F)cc3)cc2C1=O	-2.1	3.5	/	/	-0.8[16.7 µM]	-4.6
CO[C@@H]1CN(C)C(=O)c2ccc(NC(=O)c3cnccn3)cc2OC[C@H](C)N(C(=O)C2CC2)C[C@H]1C	-2.3	-2.1	/	/	/	-3.3
O=C1CCCC2=C1C(c1ccc3c(c1)OCO3)c1c([nH]n(-c3ccccc3)c1=O)N2 (stereo unspecified)	-2.1	-0.2	1.7	-16.8	191.3*	-17.1
C[C@H]1CN([C@@H](C)CO)C(=O)Cc2cc(NC(=O)C3CCCCC3)ccc2O[C@H]1CN(C)S(=O)(=O)c1cn(C)cn1	-1.6	0.2	/	/	-6.0[16.7 µM]	-6.4
C[C@@H]1CN([C@H](C)CO)C(=O)c2cc(NC(=O)CCCN(C)C)ccc2O[C@@H](C)CCCCO[C@H]1CN(C)Cc1ccncc1	-2.8	-3.5	/	/	6.2[16.7 µM]	-23.1
O=C(NCC1CCCO1)c1cc2ccccc2cc1O (stereo unspecified)	-1.8	56.9*	27.7	61.5	/	-13.9
O=C(NNC(=O)c1cc2ccccc2cc1O)NC1CCCCC1	4.5	18.2	-1.2	3.7	-7.9	-13.0
O=C(NCCOc1ccccc1)c1cc2ccccc2o1	-6.0	13.3	14.9	102.4*	-6.0	-19.7
O=C(NCC1CCCCC1)c1cc2ccccc2cc1O	6.0	54.0*	17.2	28.9	-0.2	-8.6
O=C(COc1ccccc1)NNC(=O)c1cc2ccccc2o1	5.7	/	/	10.9	-21.3	-5.5
O=C(NCC1CCCO1)c1cccc2ccccc12 (stereo unspecified)	5.6	1.9	0.8	-6.6	-13.5	-10.6
CC1CCC(NC(=O)c2cc3ccccc3cc2O)CC1 (stereo unspecified)	2.3	77.2*	46.3*	94.1*	/	-15.8
C[C@H](CO)N1C[C@H](C)[C@@H](CN(C)C(=O)Nc2ccc3c(c2)OCO3)Oc2ccc(NS(C)(=O)=O)cc2CC1=O	5.3	3.4	/	/	3.8[16.7 µM]	4.9
O=C(NCC1CCCO1)c1cc2ccccc2o1 (stereo unspecified)	3.4	43.7*	3.9	35.9	/	-4.3
CSc1ccc(S(=O)(=O)NC2CC3CCC2C3)cc1 (stereo unspecified)	4.6	-23.8	-0.1	-6.3	104.4*	-6.6
O=C(OCC(=O)N1CCCC1)c1c(Cl)cccc1Cl	-2.3	28.3	-1.6	3.3	0.3	-15.7
